Results on one protein are retold here after paper PMC7279473, “Insights into the FMNAT Active Site of FAD Synthase: Aromaticity Is Essential for Flavin Binding and Catalysis” (International Journal of Molecular Sciences, 2020).

Substrate in data set [1]: Cc1cc2nc3c(=O)[nH]c(=O)nc-3n(C[C@H](O)[C@H](O)[C@H](O)COP(=O)(O)O)c2cc1C
The data set can be described thus: purified protein. The conditions noted are these: FMNAT activity, saturating ATP, 20 mM PIPES, 10 mM MgCl2, pH 7.0, 25 °C.

Substrate in data set [2]: Nc1ncnc2c1ncn2[C@@H]1O[C@H](COP(=O)(O)OP(=O)(O)OP(=O)(O)O)[C@@H](O)[C@H]1O
Kind of data set: purified protein. The conditions noted are these: FMNAT activity, saturating FMN, 20 mM PIPES, 10 mM MgCl2, pH 7.0, 25 °C.

B1: CaFADS (Corynebacterium ammoniagenes) (protein)
chain: MDIWYGTAAVPKDLDNSAVTIGVFDGVHRGHQKLINATVEKAREVGAKAIMVTFDPHPVSVFLPRRAPLGITTLAERFALAESFGIDGVLVIDFTRELSGTSPEKYVEFLLEDTLHASHVVVGANFTFGENAAGTADSLRQICQSRLTVDVIDLLDDEGVRISSTTVREFLSEGDVARANWALGRHFYVTGPVVRGAGRGGKELGFPTANQYFHDTVALPADGVYAGWLTILPTEAPVSGNMEPEVAYAAAISVGTNPTFGDEQRSVESFVLDRDADLYGHDVKVEFVDHVRAMEKFDSVEQLLEVMAKDVQKTRTLLAQDVQAHKMAPETYFLQAES
For the protein B1, in data set [1], the Michaelis constant (Km) is 6 ± 1 µM, the kcat was 0.65 ± 0.017 s⁻¹ and the kcat/Km is 100000 M⁻¹ s⁻¹. For the same protein, in data set [2], the Km is 43 ± 8 µM, the kcat turned out to be 0.65 ± 0.017 s⁻¹ and the kcat/Km turned out to be 15000 M⁻¹ s⁻¹.

Usually Km stands for the concentration of substrate that gives half-maximal velocity. What is called kcat is the maximal rate divided by the concentration of active sites. As a reminder, the kcat/Km is the second-order rate constant that governs catalysis at low substrate concentration.
